Measured values taken from publication PMC7826790, “Glucose 6-Phosphate Dehydrogenase from Trypanosomes: Selectivity for Steroids and Chemical Validation in Bloodstream Trypanosoma brucei” (Molecules, 2021).
“And” between values parts separate entries of the source, which are not always exact repeats. Equal values may be shown once.

Chains of the proteins cited; added tags and fusions are not shown.
UniProt Q4E0B2, entry or part of it: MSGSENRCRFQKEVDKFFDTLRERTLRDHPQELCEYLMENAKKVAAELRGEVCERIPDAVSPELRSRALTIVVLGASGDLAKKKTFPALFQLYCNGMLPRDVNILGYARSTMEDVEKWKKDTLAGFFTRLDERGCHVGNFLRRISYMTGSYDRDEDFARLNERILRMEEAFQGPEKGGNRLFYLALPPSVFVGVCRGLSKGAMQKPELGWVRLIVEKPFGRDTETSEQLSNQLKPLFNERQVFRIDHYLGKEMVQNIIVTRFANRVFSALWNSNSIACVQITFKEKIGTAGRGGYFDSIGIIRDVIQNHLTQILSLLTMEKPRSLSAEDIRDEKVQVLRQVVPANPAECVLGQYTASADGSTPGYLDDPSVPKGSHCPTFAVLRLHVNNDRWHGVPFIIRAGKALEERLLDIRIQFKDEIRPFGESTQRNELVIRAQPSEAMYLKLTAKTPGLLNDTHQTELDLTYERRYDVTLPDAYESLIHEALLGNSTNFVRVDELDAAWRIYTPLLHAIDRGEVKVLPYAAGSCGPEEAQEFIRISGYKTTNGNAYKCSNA
UniProt P11413, whole entry: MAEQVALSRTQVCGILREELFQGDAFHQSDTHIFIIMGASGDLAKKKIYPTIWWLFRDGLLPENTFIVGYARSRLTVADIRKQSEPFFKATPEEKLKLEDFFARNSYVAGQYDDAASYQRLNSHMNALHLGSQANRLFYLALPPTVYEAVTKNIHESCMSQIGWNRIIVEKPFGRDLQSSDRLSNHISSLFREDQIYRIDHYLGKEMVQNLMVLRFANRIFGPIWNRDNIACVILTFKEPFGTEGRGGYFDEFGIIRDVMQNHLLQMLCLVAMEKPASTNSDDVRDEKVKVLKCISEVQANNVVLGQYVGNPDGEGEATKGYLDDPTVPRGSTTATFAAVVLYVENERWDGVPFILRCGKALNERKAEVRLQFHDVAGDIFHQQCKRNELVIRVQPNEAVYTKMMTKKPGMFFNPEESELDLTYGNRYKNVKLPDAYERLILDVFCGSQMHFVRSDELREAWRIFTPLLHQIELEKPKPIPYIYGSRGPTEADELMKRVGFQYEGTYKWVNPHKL

Columns and labels:
T. cruzi G6PDH = T. cruzi G6PDH (Trypanosoma cruzi, UniProt Q4E0B2); experiment: biochemical; assay type: biochemical; settings: for fold less active against TcG6PDH than the α-Br analogue: 3-acetoxy derivatives, β-Br vs α-Br
Experimental: (§1) E. coli Tuner (DE3) cells were transformed with the pET28a (+) and pHis constructs encoding for N-terminally hexa histidine-tagged TcG6PDHL and HsG6PDH, respectively, and grown overnight in LB medium with […] and […], respectively. […] Thereafter, the cultures were incubated for 20 h at 25 °C and 170 rpm. Cells were harvested by centrifugation (5000× g, 10 min, 4 °C), resuspended in buffer A (50 mM Tris, pH of 8.0, 500 mM NaCl and 5 mM MgCl2) containing a complete™ Protease Inhibitor Cocktail prepared as indicated by the provider (Sigma-Aldrich-Merck, Germany); afterwards, we added 1 mg/mL of lysozyme and incubated the cells for 1 h at 4 °C. […] Protein concentration was determined from the absorbance values at 280 nm and the corresponding theoretical absorbance coefficients.
All reactions were performed in 50 mM Tris (pH 7.5) with 5 mM MgCl2 and 250 mM NaCl in a final volume of 500 µL. […] For each enzyme, a control reaction in the presence of 1% (v/v) DMSO was run. Stock and working solutions of compounds were prepared in 100% (v/v) DMSO. […] The initial velocities were calculated from the first 45 s of the reaction and normalized to the corresponding enzyme control. All measurements were performed at least in triplicate using a Cary 50 Bio spectrophotometer (Agilent Technologies, Santa Clara, CA, USA) at RT. The initial rates were determined with the Origin Pro 8.0 software (OriginLab Corporation, Northampton, MA, USA), and the IC50 values were calculated by nonlinear regression using the GraphPad Prism 5.0 software (GraphPad Inc., San Diego, CA, USA).

human G6PDH = target: T1, human G6PDH (Homo sapiens, UniProt P11413); experiment: G6PDH enzymatic assay, recombinant human G6PDH (NADPH formation at 340 nm); assay type: biochemical, H. sapiens
T1 construct: hexa-histidine (His6) (N); made in house; host or cells: E. coli Tuner (DE3), pHis vector
Experimental: as §1
G6PDH activity was determined at room temperature (RT) by monitoring NADPH (ε340 = 6220 M^−1 cm^−1) formation at 340 nm. […] The initial velocities were calculated from the first 45 s of the reaction and normalized to the corresponding enzyme control. […] The initial rates were determined with the Origin Pro 8.0 software (OriginLab Corporation, Northampton, MA, USA), and the IC50 values were calculated by nonlinear regression using the GraphPad Prism 5.0 software (GraphPad Inc., San Diego, CA, USA).

[1] = system: Bloodstream T. b. brucei (strain 427- cell line 514-1313); experiment: Cell viability of bloodstream T. b. brucei (bioluminescent assay); assay type: cell-based, Trypanosoma brucei brucei; settings: DHEA: Hek293T CC50; Conessine: L6 CC50
Experimental: Parasite viability was performed as described in [72]. […] Thereafter, 200 µL from each well were transferred to a 96-well black plate and incubated with 20 µL of a solution containing: 1.5 mg/mL luciferin in PBS glucose 1% (w/v) and Triton X-100.

| Compound | IC50 (T. cruzi G6PDH) [µM] | fold higher inhibitory activity against TcG6PDH compared to the parent molecule (EA or DHEA) (T. cruzi G6PDH) [fold] | fold less active against the human enzyme than the unmodified steroids (human G6PDH) | Selectivity Index (CC50 for murine macrophages/EC50 for T. brucei) [1] | fold less active against TcG6PDH than the α-Br analogue (T. cruzi G6PDH) [fold] |
| --- | --- | --- | --- | --- | --- |
| C[C@]12CC[C@H](O)CC1=CC[C@@H]1[C@@H]2CC[C@]2(C)C(=O)[C@H](Br)C[C@@H]12 [Compound 4] | 3.3 ± 0.7 | 7 | 2- to 4 fold | 2.5 |  |
| C[C@]12CC[C@H](O)CC1=CC[C@@H]1[C@@H]2CC[C@]2(C)C(=O)C(O)C[C@@H]12 (stereo partly shown) [Compound 7] | > 50 |  |  |  |  |
| CC(=O)O[C@H]1CC[C@@]2(C)[C@@H](CC[C@@H]3[C@@H]2CC[C@]2(C)C(=O)[C@H](Br)C[C@@H]32)C1 [Compound 2] |  |  |  | 8 and 7.9 |  |
| C[C@]12CC[C@H](O)CC1=CC[C@@H]1[C@@H]2CC[C@]2(C)C(=O)CC[C@@H]12 [DHEA, dehydroepiandrosterone] |  |  |  | 0.6 |  |
| C[C@]12CC[C@H](O)C[C@@H]1CC[C@@H]1[C@@H]2CC[C@]2(C)C(=O)[C@H](Br)C[C@@H]12 [Compound 1, 16α-bromo-epiandrosterone] | 0.053 ± 0.002 | 56 | 2- to 4 fold | 4.6 |  |
| CC(=O)O[C@H]1CC[C@@]2(C)C(=CC[C@@H]3[C@@H]2CC[C@]2(C)C(=O)[C@@H](Br)C[C@@H]32)C1 [Compound 6] |  |  |  | 0.9 | > 600 |
| CC(=O)O[C@H]1CC[C@@]2(C)[C@@H](CC[C@@H]3[C@@H]2CC[C@]2(C)C(=O)[C@@H](Br)C[C@@H]32)C1 [Compound 3] |  |  |  | 0.2 | 13 |
| CC(=O)O[C@H]1CC[C@@]2(C)C(=CC[C@@H]3[C@@H]2CC[C@]2(C)C(=O)[C@H](Br)C[C@@H]32)C1 [Compound 5] |  |  |  | 2.2 |  |
